Test results published in PubChem BioAssay AID2066 (NMMLSC, 2009).
The entries are a selection whose mix differs from that of the whole data set. The source made the active and inactive calls.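 Rule for the calls: active = GFP response relative to DMSO above a set limit, near screen average plus 3 SD (cut at about 150% in these data); inconclusive = fewer than 70 cells counted for the yeast strain; inactive = the rest.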

experiment: yeast AGP1-GFP level changes, GLN3 branch – cell-based, multiplex flow cytometry, S. cerevisiae, MLPCN library, primary screen (AID 2066); settings: 3 h, at 10 µM, active compounds read high, GFP as percent of DMSO wells;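 note: median GFP channel fluorescence of the gated AGP1 strain per well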

Compound | GFP response vs DMSO
COc1ccc(OP(C)(=O)Nc2cccc(Br)c2)cc1 (centres undefined) | inactive: 104%
Cc1ccccc1NP(C)(=O)Nc1ccccc1C | inactive: 90.4%
CP(=O)(Nc1ccc2c(c1)OCCO2)Oc1ccccc1 (centres undefined) | inactive: 94.8%
CCOP(C)(=S)SCC(=O)NC(C)(CC)C(=O)O (centres undefined) | inactive: 103%
CP(=O)(Nc1ccc(SC(F)(F)F)cc1)Oc1ccc(F)cc1 (centres undefined) | inactive: 104%
CN(C)C(=O)c1c([N+](=O)[O-])cc([N+](=O)[O-])cc1[N+](=O)[O-] | inactive: 103%
COc1ccccc1OP(C)(=O)Nc1ccccc1Br (centres undefined) | inactive: 109%
CC(C)(C)c1ccc(OP(C)(=O)O)cc1 | inactive: 103%
CP(=O)(Nc1ccc(Cl)cc1)Oc1ccc(F)cc1 (centres undefined) | inactive: 75.4%
O=C(OCCCN1CCCC1)C(O)(c1ccccc1)C1CCCCC1 (centres undefined) | inactive: 110%
CP(=O)(Oc1ccccc1)N1CCOC1=O (centres undefined) | inactive: 102%
CCc1ccc(OP(C)(=O)Nc2cccnc2)cc1 (centres undefined) | inactive: 99.1%
COc1ccc(OP(C)(=O)Nc2ccc(Br)cc2)cc1 (centres undefined) | inactive: 96.3%
CCOC(=O)c1ccc(NP(C)(=O)Oc2ccc(Cl)cc2)cc1 (centres undefined) | inactive: 92.3%
CP(=O)(OC12CC3CC(CC(C3)C1)C2)OC12CC3CC(CC(C3)C1)C2 | inactive: 103%
Nc1ccc2c(ccc3cccnc32)n1.O=[N+]([O-])c1cc([N+](=O)[O-])c(O)c([N+](=O)[O-])c1 | inactive: 110%
CP(=O)(Nc1ccc(Cl)cc1Cl)Oc1ccccc1 (centres undefined) | inactive: 101%
CP(=O)(OCCOc1ccccc1)OCCOc1ccccc1 | inactive: 108%
Cc1nc2ccc3ccccc3c2o1.O=[N+]([O-])c1cc([N+](=O)[O-])c(O)c([N+](=O)[O-])c1 | inactive: 95.7%
COc1ccccc1OP(C)(=O)Nc1ccc(C)c(C)c1 (centres undefined) | inactive: 89.8%
COc1ccc(OP(C)(=O)Nc2ccccc2Br)cc1 (centres undefined) | inactive: 87.1%
Cc1cc(C)cc(OP(C)(=O)Nc2cccc(C(F)(F)F)c2)c1 (centres undefined) | inactive: 107%
CP(=O)(Nc1ccccn1)Oc1ccccc1 (centres undefined) | inactive: 102%
COc1ccccc1OP(C)(=O)Nc1ccc(C)cc1C (centres undefined) | inactive: 109%
Cc1c(NP(C)(=O)Oc2ccc(C(C)C)cc2)c(=O)n(-c2ccccc2)n1C (centres undefined) | inactive: 104%
O=[N+]([O-])c1cc([N+](=O)[O-])c(Nc2ccccn2)c([N+](=O)[O-])c1 | inactive: 90.3%
COc1ccc(OP(C)(=O)Nc2ccccn2)cc1 (centres undefined) | inactive: 108%
CN(C)CCOC(=O)C(O)(c1ccccc1)C1CCCC1 (centres undefined) | inactive: 105%
COc1ccccc1OP(C)(=O)Nc1ccc(Br)cc1 (centres undefined) | inactive: 109%
